Results: BindingDB's records for patent US11066414 (Gilead Sciences, 2021)

The chains behind the UniProt entries cited, without tags or fusion partners.
UniProt P41279, whole entry: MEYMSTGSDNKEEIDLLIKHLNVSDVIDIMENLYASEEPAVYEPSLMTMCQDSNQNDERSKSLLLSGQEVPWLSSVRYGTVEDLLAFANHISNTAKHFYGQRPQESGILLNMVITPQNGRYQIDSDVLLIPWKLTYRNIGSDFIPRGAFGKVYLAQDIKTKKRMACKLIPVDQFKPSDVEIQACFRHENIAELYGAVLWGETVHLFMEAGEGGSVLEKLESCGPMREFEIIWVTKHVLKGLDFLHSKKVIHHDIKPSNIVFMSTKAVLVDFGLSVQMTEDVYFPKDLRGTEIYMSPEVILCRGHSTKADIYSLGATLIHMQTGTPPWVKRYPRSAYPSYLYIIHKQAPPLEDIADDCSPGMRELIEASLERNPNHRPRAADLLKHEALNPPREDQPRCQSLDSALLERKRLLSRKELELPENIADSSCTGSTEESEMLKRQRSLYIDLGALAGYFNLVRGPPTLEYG

Biological target: Mitogen-activated protein kinase kinase kinase 8 (Homo sapiens, UniProt P41279)
Assay: High Throughput Biochemical Assay
Conditions: IC50 (nM)
Method: EGFR activity was measured using KinEASE (Cisbio), a time-resolved fluorescence resonance energy transfer (TR-FRET) immunoassay. In this assay, EGFR-catalyzes the phosphorylation of a universal Tyrosine kinase peptide substrate labeled with XL665. Europium conjugated phosphor-tyrosine specific antibody binds the resulting phosphorylated peptide. Formation of phosphorylated peptide is quantified by TR-FRET with Europium as the donor and XL665 the acceptor. The assay was performed in two main steps. The first step is the kinase reaction step and the second step is the detection step with TR-FRET reagents.

Structure (SMILES)	IC50
CC(C)N1C=C([C@@H](Nc2cc(Cl)c3ncc(C#N)c(Nc4ccc(F)c(Cl)c4)c3c2)c2cncc(C(=O)N3CCCC3)c2)NN1 [US11066414, Compound 21]	14 nM
CC(C)(C)CNc1c(C#N)cnc2c(Br)cc(N[C@H](C3=CN(C4CC4)NN3)c3cccc4c3CCN4)cc12 [US11066414, Compound 24]	12 nM
CC(C)N1C=C([C@@H](Nc2cc(Cl)c3ncc(C#N)c(Nc4ccc(F)c(Cl)c4)c3c2)c2cccc3c2CNN3C)NN1 [US11066414, Compound 28]	12 nM
N#Cc1cnc2c(Cl)cc(N[C@H](C3=CNNN3)c3cccc4c3CN(C3COC3)C4)cc2c1Nc1ccc(F)c(Cl)c1 [US11066414, Compound 47]	25 nM
N#Cc1cnc2c(Cl)cc(N[C@H](C3=CN(C4COC4)NN3)c3cnc(Cl)cc3Cl)cc2c1Nc1ccc(F)c(Cl)c1 [US11066414, Compound 323]	86 nM
CC(C)(C)N1CCC(N2C=C([C@@H](Nc3cc(Cl)c4ncc(C#N)c(Nc5ccc(F)c(Cl)c5)c4c3)c3cnc(Cl)cc3Cl)NN2)CC1 [US11066414, Compound 326]	34 nM
N#Cc1cnc2c(Cl)cc(N[C@H](C3=CN(CCO)NN3)c3cc(Br)cnc3Cl)cc2c1Nc1ccc(F)c(Cl)c1 [US11066414, Compound 327]	15 nM
CCN1CCC(N2C=C([C@H](c3cscn3)N(CC)c3cc(Cl)c4ncc(C#N)c(Nc5ccc(F)c(Cl)c5)c4c3)NN2)CC1 [US11066414, Compound 374]	37 nM
CC(C)(C)CNc1c(C#N)cnc2c(Cl)cc(N[C@H](C3=CN(C(C)(C)C(F)F)NN3)c3cccc4cnccc34)cc12 [US11066414, Compound 683]	35 nM
CC(C)(C)CNc1c(C#N)cnc2c(Cl)cc(N[C@H](C3=CN(C(C)(C)CF)NN3)c3cccc4cnccc34)cc12 [US11066414, Compound 684]	14 nM
